Reference: PMC10740061 (Food Chemistry: X, 2023)

Test system: Caco-2 monolayer
Experiment: Caco-2 monolayer transmembrane transport, apical to basolateral
Assay type: in vitro ADME, human
Details: for PappAtoB: 40 µM flavonoid, 6 h, A to B, mean ± SD (n = 3)

PappAtoB (No substrate): 6.25 ± 0.09^b × 10^-6 cm/s | PappAtoB (RD (rice flour digested products) 400 µg/mL): 5.55 ± 0.07^a × 10^-6 cm/s | Increase in PappAtoB (RD vs no substrate): −0.11 | PappAtoB (WD (wheat flour digested products) 400 µg/mL): 10.82 ± 0.31^c × 10^-6 cm/s | change of apparent permeability coefficient (in words) (WD group vs no substrate): increase | Increase in PappAtoB (WD vs no substrate): 0.73
Substance: Myricitrin
change of apparent permeability coefficient (in words) (RD group vs no substrate): decrease in the apparent permeability coefficient

Marks after values point to notes of the source that are not given here.
